Experimental data taken from ChEMBL document CHEMBL5532663, “Discovery of Potent and Selective Phosphatidylinositol 3-Phosphate 5-Kinase (PIKfyve) Inhibitors as Methuosis Inducers” (J Med Chem, 2024).
One block for each compound: values may come before it.

How the values were obtained:
[1] = test system: HeLa; experiment: animal or person; conditions: Mus musculus, 240 h, read-out: TGI
[2] = test system: HeLa; experiment: cells; conditions: Homo sapiens, 24 h
[3] = test system: MDA-MB-231; experiment: cells; conditions: Homo sapiens, MDA-MB-231, 24 h
[4] = in vivo; conditions: Balb/C, mouse, iv, 10 mg/kg
[5] = test system: HeLa; experiment: animal or person; conditions: Mus musculus, po, 240 h, read-out: TGI
[6] = in vivo; conditions: Balb/C, mouse, po, 50 mg/kg
[7] = in vivo; conditions: Balb/C, mouse, po, 50 mg/kg; remark: listed apart in the source
[8] = in vivo; conditions: Balb/C, mouse, po, 50 mg/kg; remark: listed apart in the source
[9] = in vivo; conditions: Balb/C, mouse, po, 50 mg/kg; remark: listed apart in the source
[10] = in vivo; conditions: Balb/C, mouse, po, 50 mg/kg; remark: listed apart in the source
[11] = in vivo; conditions: Balb/C, mouse, iv, 10 mg/kg; remark: listed apart in the source
[12] = test system: HeLa; conditions: Homo sapiens, dose 50-800 nM, time 14.0 day
[13] = test system: MDA-MB-231; conditions: Homo sapiens, dose 50-800 nM, time 14.0 day

IC50 [2]: 1000 nM | IC50 [3]: 780 nM
SMILES: Cc1ccc(NC(=O)c2cccc(C(F)(F)F)c2)cc1Nc1cc(-c2cccnc2)nc2[nH]ccc12
inhibition in vivo at 20 mg/kg [1]: 53.8%

clearance at 24 h [4]: 4.5 mL/min/kg | AUC(0-t) at 24 h [6]: 127 µg·h/mL | bioavailability at 24 h [7]: 70.9% | CL/F at 24 h [8]: 1.17 mL/min/kg | Cmax at 24 h [9]: 10300 µg/mL | half-life at 24 h [10]: 342 min | Vd at 24 h [11]: 1.7 L/kg
SMILES: Cc1ccc2oc(-c3cn([C@H]4CC[C@@H](N)CC4)c4ncnc(N)c34)cc2c1
inhibition in vivo at 20 mg/kg [5]: 61.5%

SMILES: Nc1ncnc2c1c(-c1cc3ccccc3o1)cn2[C@H]1CC[C@@H](N)CC1
inhibition [12]: Dose-Dependent Effect | inhibition [13]: Dose-Dependent Effect
